SMILES strings stand for the structures. The entries are a selection whose mix differs from that of the whole data set. Calls of active or inactive are those of the source. No stated cut-off is given here; in the data, active means inhibition above about 40%; inactive means the rest.

Amino acid sequences for entries named in this document (tags omitted).
UniProt P08183, whole entry: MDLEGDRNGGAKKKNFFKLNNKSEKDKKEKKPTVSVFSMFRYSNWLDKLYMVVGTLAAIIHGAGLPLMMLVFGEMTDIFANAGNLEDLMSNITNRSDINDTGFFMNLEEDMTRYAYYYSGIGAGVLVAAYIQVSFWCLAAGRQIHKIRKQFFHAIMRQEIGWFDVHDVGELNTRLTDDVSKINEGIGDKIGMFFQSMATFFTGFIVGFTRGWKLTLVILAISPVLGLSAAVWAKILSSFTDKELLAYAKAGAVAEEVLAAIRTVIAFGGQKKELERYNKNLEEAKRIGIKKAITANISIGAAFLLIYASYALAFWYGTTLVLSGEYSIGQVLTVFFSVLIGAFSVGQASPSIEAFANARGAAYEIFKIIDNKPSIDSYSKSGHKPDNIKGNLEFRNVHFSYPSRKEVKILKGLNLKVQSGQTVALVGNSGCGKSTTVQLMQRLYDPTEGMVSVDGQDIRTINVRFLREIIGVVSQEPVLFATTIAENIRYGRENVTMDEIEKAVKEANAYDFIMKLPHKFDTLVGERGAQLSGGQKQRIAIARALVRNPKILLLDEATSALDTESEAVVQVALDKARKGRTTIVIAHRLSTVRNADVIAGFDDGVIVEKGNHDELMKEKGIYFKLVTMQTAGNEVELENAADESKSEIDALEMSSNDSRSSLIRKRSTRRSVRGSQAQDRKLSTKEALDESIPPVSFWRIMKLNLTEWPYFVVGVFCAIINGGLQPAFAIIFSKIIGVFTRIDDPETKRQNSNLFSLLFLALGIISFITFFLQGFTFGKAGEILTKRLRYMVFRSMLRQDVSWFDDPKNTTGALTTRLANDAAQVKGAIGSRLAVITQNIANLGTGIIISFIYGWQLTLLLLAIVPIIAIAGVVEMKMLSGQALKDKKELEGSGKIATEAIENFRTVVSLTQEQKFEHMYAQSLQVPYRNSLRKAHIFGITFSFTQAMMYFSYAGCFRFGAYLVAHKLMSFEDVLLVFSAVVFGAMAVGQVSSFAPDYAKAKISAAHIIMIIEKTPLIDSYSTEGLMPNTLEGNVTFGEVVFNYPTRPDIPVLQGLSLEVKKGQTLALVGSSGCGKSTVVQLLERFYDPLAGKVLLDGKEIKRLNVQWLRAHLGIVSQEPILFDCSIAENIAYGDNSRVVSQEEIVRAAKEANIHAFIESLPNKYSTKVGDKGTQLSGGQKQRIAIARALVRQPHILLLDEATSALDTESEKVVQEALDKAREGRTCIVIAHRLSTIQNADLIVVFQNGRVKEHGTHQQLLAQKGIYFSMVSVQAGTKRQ

For 68 compounds, inhibition results are on record in PubChem BioAssay AID1326 (NMMLSC, 2008).

For this test, the target named is ATP-dependent translocase ABCB1 (Homo sapiens) (UniProt P08183). In words: ABCB1 efflux pump inhibitors, primary screen, cell-based, multiplex, flow cytometry, ABCG2 counter-screen (AID 1326).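 Further: 0% = vehicle and 100% = reference inhibitor; higher value means more JC-1 retained so stronger ABCB1 efflux block.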 Conditions: CCRF-Adr cells, JC-1 efflux, at 6.6 µM, hits give high values.
By inhibition is commonly meant the change of the read-out against control, counted positive when it falls. For `Cc1c(NP(C)(=O)Oc2ccc(C(C)C)cc2)c(=O)n(-c2ccccc2)n1C` (stereo not drawn), the inhibition was inactive: 0.3%.

For the compound `O=[N+]([O-])c1cc([N+](=O)[O-])c(Nc2ccccn2)c([N+](=O)[O-])c1`, the inhibition is inactive: 0.06%.

For the compound `CP(=O)(Nc1ccccn1)Oc1ccccc1` (stereo not drawn), the inhibition is inactive: 0.83%.

As for `COc1ccccc1OP(C)(=O)Nc1ccc(C)cc1C` (stereo not drawn), the inhibition is inactive: 0.66%.

Take `CCc1ccc(OP(C)(=O)O)cc1`: the inhibition was inactive: -0.13%.

Consider `COc1ccc(OP(C)(=O)Nc2ccccn2)cc1` (stereo not drawn), for which the inhibition was inactive: 0.13%.

Turning to `CN(C)CCOC(=O)C(O)(c1ccccc1)C1CCCC1` (stereo not drawn), the inhibition is inactive: -0.06%.

Take `Cc1nc2ccc3ccccc3c2o1.O=[N+]([O-])c1cc([N+](=O)[O-])c(O)c([N+](=O)[O-])c1`: the inhibition was inactive: 0.36%.

With `CP(=O)(Nc1ccc(Cl)cc1Cl)Oc1ccccc1` (stereo not drawn), the inhibition was inactive: 1.07%.

In the case of `CP(=O)(OCCOc1ccccc1)OCCOc1ccccc1`, the inhibition is inactive: 1%.

For `Cc1cc(C)cc(OP(C)(=O)Nc2cccc(C(F)(F)F)c2)c1` (stereo not drawn), the inhibition was inactive: 0.91%.

As for `COc1ccccc1OP(C)(=O)Nc1ccc(C)c(C)c1` (stereo not drawn), the inhibition was inactive: 0.12%.

Consider `COc1ccc(OP(C)(=O)Nc2ccccc2Br)cc1` (stereo not drawn), for which the inhibition is inactive: 0.59%.

Regarding `CCOC(=O)c1ccc(NP(C)(=O)Oc2ccc(Cl)cc2)cc1` (stereo not drawn), the inhibition is inactive: 1.4%.

Turning to `CP(=O)(OC12CC3CC(CC(C3)C1)C2)OC12CC3CC(CC(C3)C1)C2`, the inhibition is inactive: 0.09%.

Take `COc1ccccc1OP(C)(=O)Nc1ccccc1Br` (stereo not drawn): the inhibition is inactive: 0.08%.

Regarding `CC(C)(C)c1ccc(OP(C)(=O)O)cc1`, the inhibition is inactive: -0.01%.

Regarding `CP(=O)(Nc1ccc(Cl)cc1)Oc1ccc(F)cc1` (stereo not drawn), the inhibition was inactive: 1.01%.

Consider `CN(C)C(=O)c1c([N+](=O)[O-])cc([N+](=O)[O-])cc1[N+](=O)[O-]`, for which the inhibition was inactive: 0.39%.

Regarding `CCN(CC)CC(O)COC(=O)C(O)(c1ccccc1)C1CCCCC1` (stereo not drawn), the inhibition was inactive: 0.34%.

Regarding `COc1ccc(OP(C)(=O)Nc2ccc(Br)cc2)cc1` (stereo not drawn), the inhibition is inactive: 0.8%.

`CP(=O)(Oc1ccccc1)N1CCOC1=O` (stereo not drawn): the inhibition was inactive: 0.26%.

For the compound `CCc1ccc(OP(C)(=O)Nc2cccnc2)cc1` (stereo not drawn), the inhibition was inactive: -0.13%.

For `CP(=O)(Nc1ccc2c(c1)OCCO2)Oc1ccccc1` (stereo not drawn), the inhibition was inactive: -0.5%.

On to `Cc1ccccc1NP(C)(=O)Nc1ccccc1C`, for which the inhibition was inactive: 0.45%.

`CCOP(C)(=S)SCC(=O)NC(C)(CC)C(=O)O` (stereo not drawn): the inhibition was inactive: -2.82%.

Take `O=[N+]([O-])c1cc([N+](=O)[O-])c(NCC2CCS(=O)(=O)C2)c([N+](=O)[O-])c1` (stereo not drawn): the inhibition was inactive: 1.29%.

In the case of `COc1ccc(OP(C)(=O)Nc2cccc(Br)c2)cc1` (stereo not drawn), the inhibition was inactive: 2.02%.

In the case of `CN(C)CCOC(=O)C(O)(c1ccccc1)C1CCCCC1` (stereo not drawn), the inhibition is inactive: 0.34%.

`COc1ccc(NP(C)(=O)Oc2ccccc2OC)cc1` (stereo not drawn): the inhibition was inactive: 0.51%.

On to `CCN(CC)CCCOC(=O)C(O)(c1ccccc1)C1CCCCC1` (stereo not drawn), for which the inhibition is inactive: 0.29%.

Take `CP(=O)(Nc1ccccc1)Oc1ccc(F)cc1` (stereo not drawn): the inhibition is inactive: 0.34%.

For `CCOC(=O)c1ccc(NP(C)(=O)Oc2ccc(F)cc2)cc1` (stereo not drawn), the inhibition is inactive: 0.57%.

`COc1ccc(OP(C)(=O)Nc2ccc(SC(F)(F)F)cc2)cc1` (stereo not drawn): the inhibition was inactive: 0.16%.

On to `O=C(OCCN1CCN(CCOCc2ccccc2)CC1)C(O)(c1ccccc1)c1ccccc1`, for which the inhibition is inactive: 1.8%.

Turning to `CP(=O)(Nc1ccccc1F)Oc1ccccc1` (stereo not drawn), the inhibition was inactive: 1.7%.

`CC(C)c1ccc(OP(C)(=O)Nc2ccc(SC(F)(F)F)cc2)cc1` (stereo not drawn): the inhibition is inactive: 0.07%.

Consider `Cc1ccc(C)c(NP(C)(=O)Oc2ccccc2)c1` (stereo not drawn), for which the inhibition is inactive: -0.07%.

Consider `Cc1cc(C)cc(OP(C)(=O)Nc2ccccn2)c1` (stereo not drawn), for which the inhibition is inactive: 1.12%.

For `CP(=O)(Nc1cccc(Br)c1)Oc1ccccc1` (stereo not drawn), the inhibition was inactive: 1.42%.

Take `CCOC(=O)c1ccc(NP(C)(=O)Oc2cc(C)cc(C)c2)cc1` (stereo not drawn): the inhibition was inactive: 0.83%.

With `Cc1cc(C)cc(OP(C)(=O)Nc2ccc(C)cc2C)c1` (stereo not drawn), the inhibition was inactive: -0.16%.

As for `CC1=NCCc2c1[nH]c1ccccc21.O=[N+]([O-])c1cc([N+](=O)[O-])c(O)c([N+](=O)[O-])c1`, the inhibition is inactive: -0.22%.

For `CN1CCCCC1COC(=O)C1(O)c2ccccc2CCc2ccccc21` (stereo not drawn), the inhibition was inactive: 0.56%.

As to `COc1ccccc1OP(C)(=O)Nc1c(C)cccc1C` (stereo not drawn), the inhibition is inactive: 0.21%.

Regarding `CCCOc1ccc(NP(C)(=O)Oc2ccc(Cl)cc2)cc1` (stereo not drawn), the inhibition was inactive: 0.12%.

`CP(=O)(Nc1ccc(SC(F)(F)F)cc1)Oc1ccccc1` (stereo not drawn): the inhibition was inactive: 0.17%.

For the compound `Cc1nc2ccc3ccccc3c2s1.O=[N+]([O-])c1cc([N+](=O)[O-])c(O)c([N+](=O)[O-])c1`, the inhibition is inactive: -1.13%.

Regarding `O=[N+]([O-])c1cc([N+](=O)[O-])c(-n2nnc3ccccc32)c([N+](=O)[O-])c1`, the inhibition is inactive: 0%.

For the compound `CCOC(=O)c1ccc(NP(C)(=O)Oc2ccc(OC)cc2)cc1` (stereo not drawn), the inhibition was inactive: 0.46%.

For `CCOP(C)(=S)SCC(=O)NC(C)C(=O)O` (stereo not drawn), the inhibition was inactive: 0.03%.

For the compound `CP(=O)(Nc1ccccn1)Oc1ccc(Cl)cc1` (stereo not drawn), the inhibition was inactive: 0.23%.

Regarding `Cc1cccc(C)c1OP(C)(=O)Nc1ccc(SC(F)(F)F)cc1` (stereo not drawn), the inhibition was inactive: -0.31%.

As to `CP(=O)(Oc1ccccc1)OC(c1ccccc1)C(F)(F)F` (stereo not drawn), the inhibition was inactive: 1.01%.

For the compound `CP(=O)(NC(=O)Nc1ccccc1)Oc1ccccc1` (stereo not drawn), the inhibition was inactive: 0.1%.

For the compound `Cc1cc(C)cc(OP(C)(=O)Nc2ccc(SC(F)(F)F)cc2)c1` (stereo not drawn), the inhibition is inactive: 0.5%.

In the case of `CP(=S)(Nn1cnnc1)Oc1ccccc1` (stereo not drawn), the inhibition was inactive: 0.6%.

For `CP(=O)(Nc1ccccc1Br)Oc1ccccc1` (stereo not drawn), the inhibition was inactive: 0.24%.

As to `COc1ccccc1OP(C)(=O)Nc1ccccc1` (stereo not drawn), the inhibition is inactive: 0.14%.

In the case of `COc1ccccc1OP(C)(=O)Nc1ccc(C)cc1` (stereo not drawn), the inhibition was inactive: -0.18%.

As to `Cc1ccc(NP(C)(=O)Oc2ccccc2)c(C)c1` (stereo not drawn), the inhibition was inactive: 0.9%.

For the compound `CCOC(=O)c1ccc(NP(C)(=O)Oc2ccccc2)cc1` (stereo not drawn), the inhibition is inactive: -1.37%.

Take `COc1ccccc1OP(C)(=O)Nc1cc(Cl)ccc1C` (stereo not drawn): the inhibition is inactive: 0.39%.

Turning to `COc1ccc(OP(C)(=O)Nc2cccc(F)c2)cc1` (stereo not drawn), the inhibition is inactive: 0.28%.

`O=[N+]([O-])c1ccc2c(c1)C=Nc1ccccc1O2`: the inhibition is inactive: 0.33%.

Regarding `CC(C)(C)c1ccc(OP(C)(=O)Nc2ccc(SC(F)(F)F)cc2)cc1` (stereo not drawn), the inhibition is inactive: 0.58%.

As to `Cc1cccc(C)c1OP(C)(N)=O` (stereo not drawn), the inhibition is inactive: 0.43%.

As to `CCN(CC)CCCOC(=O)C(O)(c1ccccc1)c1ccccc1`, the inhibition is inactive: 1.66%.
